Activation data for 91 molecules are collected here from PubChem BioAssay AID504326 (The Scripps Research Institute Molecular Screening Center, 2011).

Sequences of proteins named here, by UniProt entry; tags and fusion partners are left off.
UniProt P35372, whole entry, looked up: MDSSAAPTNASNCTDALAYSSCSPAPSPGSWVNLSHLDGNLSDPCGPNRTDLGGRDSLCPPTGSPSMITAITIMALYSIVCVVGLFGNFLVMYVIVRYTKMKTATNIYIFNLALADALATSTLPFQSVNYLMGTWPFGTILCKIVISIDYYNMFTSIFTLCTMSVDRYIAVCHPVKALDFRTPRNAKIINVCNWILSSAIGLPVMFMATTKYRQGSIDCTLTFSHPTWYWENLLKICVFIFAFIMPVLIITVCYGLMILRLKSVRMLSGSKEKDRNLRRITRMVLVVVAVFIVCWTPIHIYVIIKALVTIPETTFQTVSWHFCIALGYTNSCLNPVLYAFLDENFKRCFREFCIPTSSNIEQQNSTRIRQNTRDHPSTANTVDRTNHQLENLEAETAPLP
UniProt P41143, whole entry, looked up: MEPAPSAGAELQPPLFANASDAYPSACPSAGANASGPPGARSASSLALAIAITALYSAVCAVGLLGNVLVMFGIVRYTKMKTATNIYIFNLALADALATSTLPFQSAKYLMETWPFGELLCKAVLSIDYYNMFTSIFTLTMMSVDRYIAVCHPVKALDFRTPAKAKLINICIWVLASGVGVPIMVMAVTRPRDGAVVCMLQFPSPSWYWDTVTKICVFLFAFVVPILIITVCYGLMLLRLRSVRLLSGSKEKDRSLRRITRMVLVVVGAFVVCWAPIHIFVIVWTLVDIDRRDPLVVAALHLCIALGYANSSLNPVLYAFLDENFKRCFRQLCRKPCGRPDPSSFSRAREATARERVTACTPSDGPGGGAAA

Each structure is given as a SMILES string. This is a selection; strong and weak results do not stand in their true shares. The source made the active and inactive calls. No stated cut-off is given here; in the data, active means activation above about 18%; inactive means the rest.

The target in this test is Mu-type opioid receptor (Homo sapiens) + Delta-type opioid receptor (Homo sapiens) (UniProt P35372+P41143). The experiment in a line: inducers of mu-delta opioid receptor heterodimers – cell-based, luminescence, primary screen (AID 504326).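 Further: 0% = vehicle-treated cells and 100% = reference agonist.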 To be noted: cells, OPRM1-OPRD1 heterodimerization, at 9.3 µM, active compounds read high.
Regarding `CCN(CC)CCCNC(=S)N1CCn2c(nc3ccccc32)C1`, the activation is inactive: -2.54%.
On to `CCCOP(=S)(Nc1nc(N)cc(=O)[nH]1)OCCC`, for which the activation was inactive: -1.12%.
As to `O=C(CSc1nc2ccccc2n1CC(=O)N1CCOCC1)N1CCCC1`, the activation is inactive: -2.67%.
On to `CSCC[C@H](NC(=O)N1CCn2c1nc1ccccc12)C(=O)N1CCCCC1`, for which the activation is inactive: -2.72%.
In the case of `Cn1c(=O)n(CCc2ccccc2)c(=O)c2c1nc1n2CCN1Cc1ccco1` it was inactive: -3.27%; in that of `C[C@H](NC(=O)N1CCn2c1nc1ccccc12)C(=O)NCc1ccc(F)cc1`, inactive: -2.02%.
Next, `Cc1ccc2c(c1)C1CN(C)CCC1N2C(=O)c1ccccc1NS(=O)(=O)c1cccc(C(F)(F)F)c1` (stereo unspecified): inactive: 1.26%; `Oc1ccc(CC2(N3CCCC3)CCCCC2)cc1`: inactive: 0.33%.
Consider `O=C(Nc1nc2ccccc2n1CCN1CCOCC1)c1ccccc1`, for which the activation is inactive: -3.55%.
As for `NNC(=O)Cn1cnc2ccccc21`, the activation is inactive: 1.09%.
In the case of `O=C(Cn1c(C(F)(F)F)nc2ccccc21)Nc1ccccc1N1CCOCC1` it was inactive: 0.87%; in that of `COc1ccc(CNC(=O)Cn2cnc3c(OCc4ccccc4)ncnc32)cc1`, inactive: -1.41%; in that of `Nc1cccc2c([As](=O)(O)O)cccc12`, inactive: 0.69%.
As to `O=C(Cn1c(CO)nc2ccccc21)NCCc1ccccc1`, the activation was inactive: -1.4%.
On to `Cc1ccc(NCCc2c([N+](=O)[O-])cc([N+](=O)[O-])cc2[N+](=O)[O-])cc1`, for which the activation was inactive: 6.46%.
For `CC(C(=O)Nc1ccccc1C(=O)O)n1c(C(F)(F)F)nc2ccccc21` (stereo unspecified), the activation was inactive: -1.85%.
Next, `Cn1c(=O)c2ncn(CC(=O)NCCOc3ccccc3)c2n(C)c1=O`: inactive: -2.68%.
`CC(C)(C)NC(=O)Cn1c(-c2nonc2N)nc2ccccc21`: the activation is inactive: -2.36%.
On to `O=[N+]([O-])c1ccc2c(c1)nc1n2CCN(C2CCCCC2)C1`, for which the activation is inactive: -1.52%.
Turning to `COC(=O)Cn1c(=N)n(CCN2CCCCC2)c2ccccc21`, the activation was inactive: -3.26%.
Regarding `CCc1ccc(NC(=O)Cn2c3[n+](c4c(F)c(F)ccc42)CCCCC3)cc1`, the activation is inactive: -2.7%.
For the molecule `Cc1cccc(OCC(=O)OC2CN3CCC2CC3)c1` (stereo unspecified), the activation was inactive: -1.59%.
On to `CCN(CC)CCn1cnc2c1c(=O)n(CCOC(=O)c1cc(OC)c(OC)c(OC)c1)c(=O)n2C`, for which the activation was inactive: -2.63%.
For `O=C(Cn1cnc2ccccc21)Nc1cccc(S(=O)(=O)N2CCCC2)c1`, the activation is inactive: -1.27%.
As for `C=CCOC(=O)C1=C(C)N=C2SCCC(=O)N2C1/C=C/c1ccccc1` (stereo unspecified), the activation is inactive: -0.7%.
On to `Cn1c(=O)c2c(ncn2CCN(CCO)Cc2ccccc2)n(C)c1=O`, for which the activation is inactive: -1.82%.
On to `O=[As](O)(c1cccc(O)c1)c1cccc(O)c1`, for which the activation was inactive: -1.93%.
With `COc1ccc(CNc2nc3ccccc3n2CCN2CCOCC2)cc1`, the activation was inactive: -2.13%.
Consider `N#CCC(=O)N1CCn2c1nc1ccccc12`, for which the activation was inactive: -3.11%.
On to `O=C(Cn1c(CO)nc2ccccc21)NC1CCCCCC1`, for which the activation is inactive: -3.1%.
Consider `CCN(CC)CCn1c(NCc2cc(OC)ccc2OC)nc2ccccc21`, for which the activation was inactive: -2.46%.
Next, `CCOC(=O)CSc1nc2ccccc2n1CC(=O)NC(C)(C)C`: inactive: -2.25%; `CCOC(=O)C1=C(C)N=C2SCCC(=O)N2[C@@H]1/C=C/c1ccccc1`: inactive: 7.02%; `COC(=O)[C@H](CC(C)C)NC(=O)Cn1cnc2c(OCc3ccccc3)ncnc21`: inactive: -0.09%.
Next, `COc1ccc(-c2csc(NCCn3c(C)nc4cc(C(F)(F)F)ccc43)n2)cc1`: inactive: -1.05%; `O=C(Cn1c(-c2cncs2)nc2ccccc21)NC1CCCC1`: inactive: -3.1%; `O=[As](O)(O)c1cccnc1`: inactive: -1.89%.
As to `Cn1c(=O)c2c(ncn2CC(=O)N2CCCCCC2)n(C)c1=O`, the activation is inactive: -1.42%.
Regarding `O=C(Cn1cnc2ccccc21)N/N=C/c1cccnc1`, the activation is inactive: -2.71%.
Next, `CN(C)C(=O)Cn1c(=O)n(C)c2ccccc21`: inactive: -0.75%; `CC(C)C(NS(=O)(=O)c1cccc2nsnc12)C(=O)N1CCn2c1nc1ccccc12` (stereo unspecified): inactive: -3.28%; `CCC(C)N(C(=O)Cn1cnc2c1c(=O)n(C)c(=O)n2C)C1CCS(=O)(=O)C1` (stereo unspecified): inactive: -0.11%.
With `Cc1nc2cc(C(F)(F)F)ccc2n1CCNc1nc(-c2ccc([N+](=O)[O-])c(Cl)c2)cs1`, the activation is inactive: 4.79%.
Turning to `OCCNc1nc2ccccc2n1CCN1CCCCC1`, the activation is inactive: -4.27%.
Next, `Cc1nc2ccccc2n1CC(=O)NCCN1CCOCC1`: inactive: -1.64%.
`C(=N\c1nc2ccccc2n1CCN1CCOCC1)/c1cccs1`: the activation is inactive: -0.85%.
In the case of `COCCCNC(=O)Cn1cnc2c(NCc3ccccc3)ncnc21` it was inactive: -1.98%; in that of `Cn1c(=O)c2c(ncn2CC(=O)Nc2cccc(S(=O)(=O)Nc3ccccc3F)c2)n(C)c1=O`, inactive: -3.18%.
As to `CS(=O)(=O)c1ccc(Cl)c(NC(=O)COC(=O)C(O)(c2ccccc2)c2ccccc2)c1`, the activation is inactive: -0.41%.
In the case of `CN1CCN(C(=O)Cn2c(C(F)(F)F)nc3ccccc32)CC1` it was inactive: -0.23%.
Take `c1ccc(Cn2c(CNc3nc4ccccc4n3CCN3CCCCC3)nc3ccccc32)cc1`: the activation was inactive: 7.69%.
For the molecule `O=C(OC1CN2CCC1CC2)c1ccc(Cl)cc1` (stereo unspecified), the activation was inactive: -1.56%.
Next, `O=C(c1ccccc1)N1CCn2c1nc1ccccc12`: inactive: -2.18%; `Cn1cccc1/C=N/NC(=O)Cn1cnc2ccccc21`: inactive: -1.95%.
On to `CC(C(=O)N1CCc2ccccc21)n1cnc2c1c(=O)n(C)c(=O)n2C` (stereo unspecified), for which the activation is inactive: 2.24%.
Turning to `C[C@H](NC(=O)N1CCn2c1nc1ccccc12)C(=O)NCC1CCCO1` (stereo partly specified), the activation is inactive: -3.38%.
For `CCC(=O)Nc1ccc(NC(=S)NC(=O)/C=C/c2ccco2)cc1`, the activation was inactive: -2.43%.
`CCN(CC)CCn1cnc2c1c(=O)[nH]c(=O)n2Cc1ccccc1`: the activation is inactive: -1.72%.
As to `Cc1ccc(S(=O)(=O)c2nnn3c2nc(NC2CCN(Cc4ccccc4)CC2)c2ccccc23)cc1C`, the activation was active: 22.8%.
Turning to `CN1CCC(N(C)c2nc(-c3ccccc3)nc3ccccc23)CC1`, the activation is inactive: 6.7%.
In the case of `CC1CN(C(=O)Cn2c(C(F)(F)F)nc3ccccc32)CC(C)O1` (stereo unspecified) it was inactive: 0.98%; in that of `O=C(CCCCCNC(=O)N1CCn2c1nc1ccccc12)N[C@H](Cc1ccccc1)C(=O)O`, inactive: -3.27%.
As for `CC(CNC(=O)Cn1cnc2c(OCc3ccccc3)ncnc21)c1ccccc1` (stereo unspecified), the activation is inactive: -3.49%.
As for `CC(C)CN(C(=O)Cn1c(C(F)(F)F)nc2ccccc21)c1c(N)n(Cc2ccccc2)c(=O)[nH]c1=O`, the activation was inactive: -1.14%.
Next, `COCCN(C(=O)Cn1c(C(F)(F)F)nc2ccccc21)c1c(N)n(Cc2ccccc2)c(=O)[nH]c1=O`: inactive: -0.4%.
For the molecule `Brc1ccc(/C=N/c2nc3ccccc3n2CCN2CCOCC2)cc1`, the activation was inactive: -0.71%.
In the case of `c1coc(CNc2nc3ccccc3n2CCN2CCOCC2)c1` it was inactive: 0.62%; in that of `O=C(Cn1cnc2c(OCc3ccccc3)ncnc21)NCCc1c[nH]c2ccccc12`, inactive: -0.68%; in that of `Fc1ccc(Cn2nnnc2CN2CCC(n3nnc4cc(C(F)(F)F)ccc43)CC2)cc1`, inactive: 0.16%.
On to `CN(C)CCCNC(=S)N1CCn2c(nc3ccccc32)C1`, for which the activation was inactive: -2.83%.
`CC1(CBr)Cn2c(nc3ccccc3c2=O)S1` (stereo unspecified): the activation is inactive: -1.87%.
Turning to `CCC(=O)Nc1ccc2c(c1)nc1n2CCN(C2CCCCC2)C1`, the activation is inactive: 0.71%.
For `O=C(Nc1nc2ccccc2n1CCN1CCOCC1)c1ccc(COc2ccccc2Br)o1`, the activation was inactive: 0.67%.
Take `CN(C(=O)Cc1ccc(Cl)c(Cl)c1)[C@@H]1CCCC[C@H]1N1CCCC1`: the activation was inactive: 1%.
Next, `CC(C)/C=N\N=C(\N)N[N+](=O)[O-]`: inactive: 0.24%.
For `COc1ccc(CCNC(=O)CCCCCNC(=O)N2CCn3c2nc2ccccc23)cc1OC`, the activation was inactive: -3.69%.
Consider `O=C(Cn1c(COc2ccc(Cl)cc2)nc2ccccc21)NCC(F)(F)F`, for which the activation was inactive: -2.59%.
Take `C[C@H](O)[C@@H]1C(=O)N2CCc3ccc(-c4cccc(F)c4)cc3[C@@H]2C[C@@H]1N(C)C(=O)C(C)(C)C`: the activation was inactive: 1.18%.
In the case of `CCN(CC)CCn1c(NC(=O)c2ccc(C)cc2)nc2ccccc21`, the activation was inactive: 2.47%.
Regarding `O=C(Cn1c(CO)nc2ccccc21)NCc1ccc2c(c1)OCO2`, the activation is inactive: -0.4%.
With `Cc1cccc(N2CCN(C(=O)Cn3cnc4c3c(=O)n(C)c(=O)n4C)CC2)c1C`, the activation was inactive: -2.12%.
Next, `COC(=O)[C@H](CCSC)NC(=O)Cn1cnc2c(OCc3ccccc3)ncnc21`: inactive: -0.5%; `COc1ccccc1CNC(=O)COC(=O)C(O)(c1ccccc1)c1ccccc1`: inactive: -1.83%; `Cn1c(=O)c2c(nc(N3CCCCC3)n2CCNC2=NCCC2)n(C)c1=O`: inactive: -3.02%.
`Cc1ccc(NC(=O)C2CC(=O)Nc3nc4ccccc4n32)c(C)c1` (stereo unspecified): the activation was inactive: -1.32%.
For `O=C(CCNC(=O)N1CCn2c1nc1ccccc12)NCc1ccccc1`, the activation is inactive: -2.51%.
Next, `COc1ccc(N(C(=O)Cn2cnc3ccccc32)C(C(=O)NC2CCCCC2)c2ccccc2)cc1` (stereo unspecified): inactive: -1.58%; `Cc1ccc2c(c1)C1CN(C)CCC1N2C(=O)c1cccc(S(=O)(=O)N2CC(C)CC(C)C2)c1` (stereo unspecified): inactive: 1.8%; `CCN(CC)c1ccc(CNc2nc3ccccc3n2CCN2CCCCC2)cc1`: active: 42.2%.
In the case of `Cn1c(=O)c2ncn(CC(=O)N/N=C/C=C/c3ccccc3)c2n(C)c1=O`, the activation is inactive: -2.59%.
Next, `COc1ccccc1C(=O)Nc1ccc2c(c1)nc1n2CCN(Cc2ccccc2)C1`: inactive: 1.5%.
